Calls of active or inactive are those of the source. The rule behind the calls is not given here.
How the values were obtained:
Neutrophil elastase = target: T1, Neutrophil elastase (Homo sapiens, UniProt P08246); assay: Inhibition of human neutrophil elastase using N-methylsuccinyl-Ala-Ala-Pro-Val-7-amino-4-methylcoumarin as substrate measured every 30 seconds for 10 mins by fluorescence microplate reader analysis
T1 sequence (P08246 whole entry): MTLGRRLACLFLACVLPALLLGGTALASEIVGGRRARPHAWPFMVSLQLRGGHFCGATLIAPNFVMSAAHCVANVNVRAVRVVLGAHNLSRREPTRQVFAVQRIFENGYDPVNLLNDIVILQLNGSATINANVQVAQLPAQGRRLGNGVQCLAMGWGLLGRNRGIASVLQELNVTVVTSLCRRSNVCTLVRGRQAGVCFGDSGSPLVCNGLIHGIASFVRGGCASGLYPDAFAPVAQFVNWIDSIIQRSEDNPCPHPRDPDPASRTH

Protein sequences, listed by entry. Tags and fused reporters are not part of them. Residues count along the entry.
UniProt P17538, 34-164 limits assumed: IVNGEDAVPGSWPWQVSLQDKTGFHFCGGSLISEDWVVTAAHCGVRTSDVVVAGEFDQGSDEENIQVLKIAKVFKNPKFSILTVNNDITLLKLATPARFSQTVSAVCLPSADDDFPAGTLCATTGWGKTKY
UniProt P17538, 167-263 limits assumed: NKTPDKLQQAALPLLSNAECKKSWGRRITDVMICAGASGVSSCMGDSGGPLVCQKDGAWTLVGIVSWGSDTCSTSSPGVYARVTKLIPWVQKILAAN

Chymotrypsinogen B = Chymotrypsinogen B (Homo sapiens, UniProt P17538); assay: Inhibition of human pancreatic chymotrypsin using Suc-Ala-Ala-Pro-7-amino-4-methylcoumarin as substrate by fluorescence microplate reader analysis
[1] = target: T2, Neutrophil elastase (Homo sapiens) (UniProt P08246); assay: Inhibition of human neutrophil elastase using N-methylsuccinyl-Ala-Ala-Pro-Val-7-amino-4-methylcoumarin as substrate at 5 uM after 4 hrs by fluorescence microplate reader analysis
T2 sequence (whole entry): T1 sequence (P08246 whole entry)

Compound | IC50 (Neutrophil elastase) | IC50 (Chymotrypsinogen B) | inhibition [1]
COC(=O)c1nn(C(=O)c2cccc(C)c2)c2ccc([N+](=O)[O-])cc12 | 15 nM | 15 nM | –
CCOC(=O)c1nn(C(=O)c2cccc(C)c2)c2ccc(NC(C)=O)cc12 | – | 170 nM | –
COC(=O)c1nn(C(=O)c2cccc(C)c2)c2cc([N+](=O)[O-])ccc12 | – | – | Active
